Experimental data as given in patent US20240016928A1 (SCHOLAR ROCK, published 2024).

Biological target: T1, cyGARP-proTGFβ1 (cynomolgus (printed 'cy'); Cyno)
T1 construct: Only the label 'cyGARP-proTGFβ1' is printed; also called cynomolgus GARP-proTGFβ1 complex
Test: species cross-reactivity screen; legend: +++ KD <1 nM

KD [nM] | Binder
< 1 | Ab1 (antibody, human IgG4 S228P, lambda, V domains shown, mIgG1 versions are mentioned for in vivo work) VH: EVQLVESGGGLVQPGRSLRLSCAASGFTFSSYGMHWVRQAPGKGLEWVAVISYDGSNKYYADSVKGRFTISRDNSKNTLYLQMNSLRAEDTAVYYCARDIRPYGDYSAAFDIWGQGTLVTVSS VL: NFMLTQPHSVSESPGKTVTISCTGSSGSIASNYVQWYQQRPGSAPSIVIFEDNQRPSGAPDRFSGSIDSSSNSASLTISGLKTEDEADYYCQSYDSSNHGGVFGGGTQLTVLG
< 1 | Ab2 (antibody, V domains shown) VH: EVQLVQSGAEMKKPGESLKISCKGSGYNFASDWIGWVRQTPGKGLEWMGVIYPGDSDTRYSASFQGQVTISADKSINTAYLQWSSLKASDTAMYYCASAAGIAAAGHVTAFDIWGQGTMVTVSS VL: not shown
